Reference: patent publication US20250302815A1, “PROTEIN TYROSINE PHOSPHATASE TARGETING LIGANDS” (CALICO LIFE SCIENCES LLC, priority 2021, published 2025)

The chains behind the UniProt entries cited, without tags or fusion partners.
UniProt Q06180, whole entry: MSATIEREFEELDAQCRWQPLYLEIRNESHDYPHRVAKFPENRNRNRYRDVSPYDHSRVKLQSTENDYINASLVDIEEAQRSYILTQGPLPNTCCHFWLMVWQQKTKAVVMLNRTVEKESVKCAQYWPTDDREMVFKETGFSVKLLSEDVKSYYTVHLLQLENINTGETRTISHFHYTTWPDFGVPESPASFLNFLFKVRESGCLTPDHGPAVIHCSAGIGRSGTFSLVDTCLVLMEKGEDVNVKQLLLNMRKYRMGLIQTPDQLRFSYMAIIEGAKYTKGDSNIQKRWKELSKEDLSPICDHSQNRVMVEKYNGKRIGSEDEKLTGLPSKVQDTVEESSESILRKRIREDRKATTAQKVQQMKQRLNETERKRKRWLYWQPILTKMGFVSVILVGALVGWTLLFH
UniProt P17706, whole entry: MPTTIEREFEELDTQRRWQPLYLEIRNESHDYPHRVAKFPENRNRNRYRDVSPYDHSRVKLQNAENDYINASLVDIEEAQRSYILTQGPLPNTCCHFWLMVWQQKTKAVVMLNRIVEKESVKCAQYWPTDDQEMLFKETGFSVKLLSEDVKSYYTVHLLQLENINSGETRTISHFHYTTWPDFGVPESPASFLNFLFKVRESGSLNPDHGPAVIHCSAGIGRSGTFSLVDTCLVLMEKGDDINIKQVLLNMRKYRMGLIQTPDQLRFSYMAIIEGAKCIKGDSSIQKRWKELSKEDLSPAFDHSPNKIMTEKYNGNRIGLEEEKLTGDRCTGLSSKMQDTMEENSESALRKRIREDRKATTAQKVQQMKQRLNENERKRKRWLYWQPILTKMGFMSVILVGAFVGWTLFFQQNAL

Key:
PTPN2 (B16F10.4 cells) = PTPN2 (B16F10.4 cells) (Mus musculus, UniProt Q06180); test: HiBiT Degradation B16F10.4 PTPN2
[1] = target: PTPN2 (HiBIT-PTPN2 in 293T.109 cells) (Homo sapiens, UniProt P17706); test: HiBiT Degradation 293T.109 PTPN2 (Nano-Glo HiBiT Lytic Assay)
[2] = read-out: HiBiT Degradation B16F10.4 PTPN2 24.0 hours DC50, tested form: TFA
[3] = read-out: HiBiT Degradation 293T.109 PTPN2 24.0 hours DC50, tested form: TFA

Row | Structure (SMILES) | DC50 (PTPN2 (B16F10.4 cells); [2]) [µM] | DC50 [1, 3] [µM] | DC50 (PTPN2 (B16F10.4 cells); read-out: HiBiT Degradation B16F10.4 PTPN2 24.0 hours DC50) [µM] | DC50 ([1]; read-out: HiBiT Degradation 293T.109 PTPN2 24.0 hours DC50) [µM]
1 | O=C(O)COc1c(C(=O)O)sc(-c2cccc(NC3CCN(S(=O)(=O)Cc4cccc(NC(=O)CCCCCN5CCC(Nc6cccc7c6C(=O)N(C6CCC(=O)NC6=O)C7=O)CC5)c4)CC3)c2)c1Cl (stereo not drawn) | > 1 | 0.2 to 1 |  | 
2 | CC1(C)C[C@@H](Nc2cccc(-c3sc(C(=O)O)c(OCC(=O)O)c3Cl)c2)CCN1S(=O)(=O)Cc1cccc(NC(=O)N2CCC(c3ccc4c5c(cccc35)C(=O)N4C3CCC(=O)NC3=O)C(F)(F)C2)c1 (stereo partly drawn) |  |  | < 0.05 | < 0.05
3 | Cn1nc(C2CCC(=O)NC2=O)c2ccc(C3CCN(C(=O)Nc4cccc(CS(=O)(=O)N5CC[C@H](Nc6cccc(-c7sc(C(=O)O)c(OCC(=O)O)c7Cl)c6)CC5(C)C)c4)CC3(F)F)cc21 (stereo partly drawn) | 0.05 to 0.2 | 0.05 to 0.2 |  | 

Second part, led by results:

Row | DC50 (PTPN2 (B16F10.4 cells); [2]) [µM] | DC50 [1, 3] [µM] | Structure (SMILES) | DC50 (PTPN2 (B16F10.4 cells); read-out: HiBiT Degradation B16F10.4 PTPN2 24.0 hours DC50) [µM] | DC50 ([1]; read-out: HiBiT Degradation 293T.109 PTPN2 24.0 hours DC50) [µM]
4 | 0.2 to 1 | 0.05 to 0.2 | Cc1cn(C2CCC(=O)NC2=O)c2ccc(N3CCC(CCNC(=O)Nc4cccc(CS(=O)(=O)N5CC[C@H](Nc6cccc(-c7sc(C(=O)O)c(OCC(=O)O)c7Cl)c6)CC5(C)C)c4)CC3)cc12 (stereo partly drawn) |  | 
5 | 0.05 to 0.2 | 0.05 to 0.2 | Cn1c(=O)n(C2CCC(=O)NC2=O)c2ccc(N3CCC(CCN4CCN(c5cccc(CS(=O)(=O)N6CC[C@H](Nc7cccc(-c8sc(C(=O)O)c(OCC(=O)O)c8Cl)c7)CC6(C)C)c5)C4=O)CC3)cc21 (stereo partly drawn) |  | 
6 | 0.05 to 0.2 | < 0.05 | CC1(C)C[C@@H](Nc2cccc(-c3sc(C(=O)O)c(OCC(=O)O)c3Cl)c2)CCN1S(=O)(=O)Cc1cccc(NCCNC2CCN(c3ccc4c5c(cccc35)C(=O)N4C3CCC(=O)NC3=O)CC2)c1 (stereo partly drawn) |  | 

Read-outs that look alike come from different tables or passages of the source.
